The values below are quoted from earlier work in patent US20100184765A1, “Protein Kinase Inhibitors and Methods for Using Thereof” (IRM LLC, priority 2007, published 2010).

By UniProt entry, the sequences of proteins in these tests, tags left out. Residues count along the entry.
UniProt P35968, 20-1356, species assumed: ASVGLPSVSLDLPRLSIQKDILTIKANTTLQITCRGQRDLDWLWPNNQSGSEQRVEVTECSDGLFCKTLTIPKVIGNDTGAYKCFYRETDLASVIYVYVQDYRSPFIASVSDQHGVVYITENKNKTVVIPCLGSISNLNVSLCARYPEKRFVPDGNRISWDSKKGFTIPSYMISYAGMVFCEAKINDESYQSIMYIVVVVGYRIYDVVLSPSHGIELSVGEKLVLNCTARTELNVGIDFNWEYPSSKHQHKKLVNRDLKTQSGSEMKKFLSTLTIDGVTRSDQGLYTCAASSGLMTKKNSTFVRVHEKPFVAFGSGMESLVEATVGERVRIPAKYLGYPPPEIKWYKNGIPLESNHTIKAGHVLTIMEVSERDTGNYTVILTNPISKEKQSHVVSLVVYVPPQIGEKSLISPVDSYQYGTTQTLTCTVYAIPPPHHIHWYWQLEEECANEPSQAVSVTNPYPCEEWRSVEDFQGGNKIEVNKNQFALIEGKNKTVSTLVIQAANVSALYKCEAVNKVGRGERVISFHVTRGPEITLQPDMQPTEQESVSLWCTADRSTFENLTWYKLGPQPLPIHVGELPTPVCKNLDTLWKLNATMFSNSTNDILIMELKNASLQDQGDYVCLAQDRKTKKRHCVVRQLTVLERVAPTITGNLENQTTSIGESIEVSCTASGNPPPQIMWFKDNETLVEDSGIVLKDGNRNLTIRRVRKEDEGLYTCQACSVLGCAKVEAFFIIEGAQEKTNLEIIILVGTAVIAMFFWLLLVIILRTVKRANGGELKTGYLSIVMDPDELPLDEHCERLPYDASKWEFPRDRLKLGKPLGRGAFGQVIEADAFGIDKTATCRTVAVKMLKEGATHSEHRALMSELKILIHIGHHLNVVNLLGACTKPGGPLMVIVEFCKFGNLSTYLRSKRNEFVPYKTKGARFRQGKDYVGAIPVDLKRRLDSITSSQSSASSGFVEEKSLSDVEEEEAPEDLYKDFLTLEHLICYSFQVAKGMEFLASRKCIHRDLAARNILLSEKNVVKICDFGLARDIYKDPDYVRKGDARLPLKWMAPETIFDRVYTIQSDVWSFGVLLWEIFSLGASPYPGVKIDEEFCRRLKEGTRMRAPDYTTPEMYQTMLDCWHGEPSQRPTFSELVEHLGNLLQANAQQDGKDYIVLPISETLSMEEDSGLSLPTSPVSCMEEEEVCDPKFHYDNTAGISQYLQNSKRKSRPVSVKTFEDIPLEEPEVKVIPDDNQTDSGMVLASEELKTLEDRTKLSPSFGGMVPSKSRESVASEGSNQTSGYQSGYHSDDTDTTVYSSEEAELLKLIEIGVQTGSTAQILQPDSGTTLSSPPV

This series deals with KDR (Homo sapiens, UniProt P35968).

Take VEGF: the dissociation constant (Kd) is 0.075 nM.
